{
  "source": "patent US12048708B2",
  "about": "(RHOSHAN PHARMACEUTICALS, INC., priority 2017, dated 2024)",
  "key": {"[1]": {"conditions": "cited from earlier work; for solubility of aspirin: pH 5.5 and above"}, "[2]": {"assay": "Saturation solubility of ASA in organic solvents and TBA-Water systems", "format": "physicochemical", "excerpt": "Procedure for Solubility Determination:"}},
  "note": "Read-outs that look alike come from different tables or passages of the source.",
  "data": [
    {"substance": "o-acetylsalicylic acid [ASA]", "values": [
      {"measurement": "solubility", "setting": "[1]; dimethyl formamide, DMF", "result": 30, "unit": "mg/mL"},
      {"measurement": "solubility", "setting": "[1]; dimethyl sulfoxide, DMSO", "result": 41, "unit": "mg/mL"},
      {"measurement": "solubility", "setting": "[1]; ethanol", "result": 80, "unit": "mg/mL"},
      {"measurement": "solubility of aspirin", "setting": "[1]", "result": "greater than 100 mg/ml"},
      {"measurement": "solubility of aspirin", "setting": "[1]; listed as aspirin", "result": "more than 100 mg/ml"},
      {"measurement": "solubility in water", "setting": "[1]; water", "result": "about 0.3%"},
      {"measurement": "~Solubility of Aspirin", "setting": "[2]; Polyethylene glycol 400", "result": "~150", "unit": "mg/mL"},
      {"measurement": "~Solubility of Aspirin", "setting": "[2]; Propylene glycol", "result": "~155", "unit": "mg/mL"},
      {"measurement": "~Solubility of Aspirin", "setting": "[2]; TBA", "result": "~150", "unit": "mg/mL"},
      {"measurement": "~Solubility of Aspirin", "setting": "[2]; TBA:Water (20:80)", "result": "~9", "unit": "mg/mL"},
      {"measurement": "~Solubility of Aspirin", "setting": "[2]; TBA:Water (25:75)", "result": "~18", "unit": "mg/mL"},
      {"measurement": "~Solubility of Aspirin", "setting": "[2]; TBA:Water (30:70)", "result": "~38", "unit": "mg/mL"},
      {"measurement": "~Solubility of Aspirin", "setting": "[2]; TBA:Water (40:60)", "result": "~50", "unit": "mg/mL"},
      {"measurement": "~Solubility of Aspirin", "setting": "[2]; TBA:Water (60:40)", "result": "~105", "unit": "mg/mL"},
      {"measurement": "~Solubility of Aspirin", "setting": "[2]; TBA:Water (80:20)", "result": "~120", "unit": "mg/mL"},
      {"measurement": "~Solubility of Aspirin", "setting": "[2]; isopropanol", "result": "~140", "unit": "mg/mL"},
      {"measurement": "~Solubility of Aspirin", "setting": "[2]; n-butanol", "result": "~100", "unit": "mg/mL"},
      {"measurement": "~Solubility of Aspirin", "setting": "[2]; n-propanol", "result": "~130", "unit": "mg/mL"}
    ]}
  ]
}
